Assay results as given in PubChem BioAssay AID720707 (National Center for Advancing Translational Sciences (NCATS), 2013).
Only a part is listed here, and it is no random draw. Activity calls are given as the source filed them. The call rests on the fitted dose curve; in most records, active means well fitted activation curve with a large enough effect; inconclusive means small, poorly fitted or top-dose-only effect; inactive means no such curve, though single readings can be large or run the other way.

Chains of the proteins cited; added tags and fusions are not shown.
UniProt O95398, whole entry: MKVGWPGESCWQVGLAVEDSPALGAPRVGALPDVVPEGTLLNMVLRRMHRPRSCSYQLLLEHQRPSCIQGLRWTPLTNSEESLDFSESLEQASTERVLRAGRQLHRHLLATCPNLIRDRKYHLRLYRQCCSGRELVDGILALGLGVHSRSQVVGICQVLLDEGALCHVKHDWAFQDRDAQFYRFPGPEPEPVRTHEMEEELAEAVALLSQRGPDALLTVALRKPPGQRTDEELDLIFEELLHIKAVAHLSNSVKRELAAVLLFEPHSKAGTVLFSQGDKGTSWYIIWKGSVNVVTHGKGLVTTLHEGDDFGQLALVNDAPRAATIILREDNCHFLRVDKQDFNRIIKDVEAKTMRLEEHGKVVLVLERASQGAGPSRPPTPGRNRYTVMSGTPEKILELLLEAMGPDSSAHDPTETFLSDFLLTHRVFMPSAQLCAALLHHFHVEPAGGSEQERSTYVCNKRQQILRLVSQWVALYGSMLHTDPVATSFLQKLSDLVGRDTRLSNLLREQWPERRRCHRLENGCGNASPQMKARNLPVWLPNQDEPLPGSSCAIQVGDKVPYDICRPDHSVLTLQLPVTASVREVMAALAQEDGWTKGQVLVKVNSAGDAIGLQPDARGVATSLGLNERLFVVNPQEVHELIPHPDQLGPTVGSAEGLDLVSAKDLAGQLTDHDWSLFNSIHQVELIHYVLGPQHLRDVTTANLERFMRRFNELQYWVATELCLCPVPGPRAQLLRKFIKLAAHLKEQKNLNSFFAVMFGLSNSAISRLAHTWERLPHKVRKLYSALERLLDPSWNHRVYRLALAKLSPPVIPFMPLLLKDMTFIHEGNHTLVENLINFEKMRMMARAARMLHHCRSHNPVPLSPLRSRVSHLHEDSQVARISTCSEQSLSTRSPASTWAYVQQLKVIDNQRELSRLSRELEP

molecular target: Rap guanine nucleotide exchange factor 3 (Homo sapiens) (UniProt O95398); assay: qHTS for Agonist of cAMP-regulated guanine nucleotide exchange factor 3 (EPAC1): primary screen; details: biochemical assay, 100% = response to 6.5 mM cAMP; at 154 µM (top of the series); further: nearly all actives have a fitted effect of over 60% in size
Source text: In multi-cellular eukaryotic organisms, the effects of cAMP are transduced by two ubiquitously-expressed intracellular cAMP receptors, the classic protein kinase A/cAMP-dependent protein kinase (PKA/cAPK) and the more recently discovered exchange protein directly activated by cAMP/cAMP-regulated guanine nucleotide exchange factor (EPAC/cAMP-GEF). Both PKA and EPAC are ubiquitously expressed in all tissues, and an increase in intracellular cAMP levels will lead to the activation of both PKA and EPAC. Therefore, careful dissections of the individual role and relative contribution of EPAC and PKA within the overall cAMP signaling in various model systems are critical for further elucidating the mechanism of cAMP signaling. To date no EPAC-specific antagonists and agonist, as well as isoform-specific agonists have been reported, and developing EPAC-specific pharmacological probes to determine the physiological functions that EPAC play in the overall cAMP-mediated signaling remains a major challenge within the research field. Furthermore, identified regulators of EPAC may lead to new mechanism-based therapeutic strategies specifically targeting the EPAC / cAMP-signaling components as EPAC has been implicated to play important roles in major human pathological conditions such as diabetes, heart disease, and cancer.
This qHTS will be used to screen the Molecular Libraries Small Molecule Repository (MLSMR) as a concentration-titration series using the NCGC unique quantitative screening (qHTS) platform to find activators for EPAC1. In addition, this assay will also be used as a counterscreen for the EPAC2 qHTS. This fluorescent based assay is developed and validated for EPAC1 that measures exchange using EPAC effector Rap1 complex with BODIPY-GDP, a GDP analog with a tethered fluorophores. Activators are identified by monitoring the change in fluorescence signal as the exchanged free BODIPY-GDP has a reduced fluorescence compared to Rap1-bound BODIPY-GDP. Increase in signal (activation) is the desired outcome for the EPAC1 agonist while no activity in this assay is desired for the EPAC2 agonist counterscreen.
[1] de Rooij, J., Zwartkruis, F. J., Verheijen, M. H., Cool, R. H., Nijman, S. M., Wittinghofer, A., and Bos, J.L. (1998) Nature 396, 474-477
NIH Chemical Genomics Center [NCGC]
NIH Molecular Libraries Probe Centers Network [MLPCN]
Assay Submitter (PI): Xiaodong Cheng, The University of Texas Medical Branch
Briefly, three uL of reagents (100 nM EPAC1, 250 nM RAP1B-BODIPY-GDP, 50 uM GDP) were dispensed into a 1536-well Greiner black solid-bottom medium binding assay plate. Controls and test compounds (23 nL) were transferred to the plate via a Kalypsys pin tool equipped with a 1536-pin array. The plates were centrifuged at 1,000 rpm for 15 seconds followed by 5 minute incubation at room temperature. The assay plates were read at 5 minute intervals for 30 minutes in the ViewLux plate reader using 480nm excitation and 540nm emission filters. The results were normalized to the agonist positive control of 6.5 mM cAMP.

SMILES	activation
CC(C)c1ccc(OP(C)(=O)Nc2ccc(SC(F)(F)F)cc2)cc1 (configuration not stated)	inactive: -32.3%
CP(=O)(Nc1ccccc1F)Oc1ccccc1 (configuration not stated)	inactive: 4.27%
O=C(OCCN1CCN(CCOCc2ccccc2)CC1)C(O)(c1ccccc1)c1ccccc1	inactive: 4.7%
COc1ccc(OP(C)(=O)Nc2ccc(SC(F)(F)F)cc2)cc1 (configuration not stated)	inactive: -7.21%
CCOC(=O)c1ccc(NP(C)(=O)Oc2ccc(F)cc2)cc1 (configuration not stated)	inactive: -1.91%
CCCCCOc1ccc(NP(C)(=O)Oc2ccc(Cl)cc2Cl)cc1 (configuration not stated)	inactive: -2.71%
CP(=O)(Nc1ccccc1)Oc1ccc(F)cc1 (configuration not stated)	inactive: -3.9%
CCN(CC)CCCOC(=O)C(O)(c1ccccc1)C1CCCCC1 (configuration not stated)	inactive: -2.76%
Cc1c([N+](=O)[O-])cc([N+](=O)[O-])c(Br)c1[N+](=O)[O-]	inactive: 1.01%
COc1ccc(NP(C)(=O)Oc2ccccc2OC)cc1 (configuration not stated)	inactive: 3.01%
CN(C)CCOC(=O)C(O)(c1ccccc1)C1CCCCC1 (configuration not stated)	inactive: -6.69%
COc1ccc(OP(C)(=O)Nc2cccc(Br)c2)cc1 (configuration not stated)	inactive: 3.58%
Cc1c(C(c2ccc3c(c2)OCO3)c2c(C)n(C)n(-c3ccccc3)c2=O)c(=O)n(-c2ccccc2)n1C.O=[N+]([O-])c1cc([N+](=O)[O-])c(O)c([N+](=O)[O-])c1	inactive: -16.1%
Cc1cc(-c2cccc3ccccc23)c(C)cn1.O=[N+]([O-])c1cc([N+](=O)[O-])c(O)c([N+](=O)[O-])c1	inactive: -5.69%
O=[N+]([O-])c1ccc(OP2(=O)COCCO2)cc1 (configuration not stated)	inactive: 2.46%
CCOP(C)(=S)SCC(=O)NC(C)(CC)C(=O)O (configuration not stated)	inactive: -6.38%
CP(=O)(Nc1ccc(SC(F)(F)F)cc1)Oc1ccc(F)cc1 (configuration not stated)	inactive: -4.59%
O=[N+]([O-])c1cc([N+](=O)[O-])c(C(F)(F)F)c([N+](=O)[O-])c1O	inactive: -10.1%
Cc1ccccc1NP(C)(=O)Nc1ccccc1C	inactive: -0.566%
CP(=O)(Nc1ccc2c(c1)OCCO2)Oc1ccccc1 (configuration not stated)	inactive: -2.81%
CP(=O)(Oc1ccccc1)N1CCOC1=O (configuration not stated)	inactive: 18.3%

SMILES	activation
CCc1ccc(OP(C)(=O)Nc2cccnc2)cc1 (configuration not stated)	inactive: -3.4%
COc1ccccc1OP(C)(=O)Nc1c(C)n(C)n(-c2ccccc2)c1=O (configuration not stated)	inactive: 0.876%
O=C(OCCCN1CCCC1)C(O)(c1ccccc1)C1CCCCC1 (configuration not stated)	inactive: 2%
CCN(CC)CC(O)COC(=O)C(O)(c1ccccc1)C1CCCCC1 (configuration not stated)	inactive: -6.8%
COc1ccc(OP(C)(=O)Nc2ccc(Br)cc2)cc1 (configuration not stated)	inactive: -19.5%
CN(C)C(=O)c1c([N+](=O)[O-])cc([N+](=O)[O-])cc1[N+](=O)[O-]	inactive: -7.71%
CP(=O)(Nc1ccc(Cl)cc1)Oc1ccc(F)cc1 (configuration not stated)	inactive: -4.06%
COc1ccccc1OP(C)(=O)Nc1ccccc1Br (configuration not stated)	inactive: -1.08%
CC(C)(C)c1ccc(OP(C)(=O)O)cc1	inactive: -0.84%
CP(=O)(OC12CC3CC(CC(C3)C1)C2)OC12CC3CC(CC(C3)C1)C2	inactive: 3.13%
CCOC(=O)c1ccc(NP(C)(=O)Oc2ccc(Cl)cc2)cc1 (configuration not stated)	inactive: -5.49%
Nc1ccc2c(ccc3cccnc32)n1.O=[N+]([O-])c1cc([N+](=O)[O-])c(O)c([N+](=O)[O-])c1	inactive: 8.2%
COc1ccc(OP(C)(=O)Nc2ccccc2Br)cc1 (configuration not stated)	inactive: -13.2%
COc1ccccc1OP(C)(=O)Nc1ccc(C)c(C)c1 (configuration not stated)	inactive: 2.66%
Cc1cc(C)cc(OP(C)(=O)Nc2cccc(C(F)(F)F)c2)c1 (configuration not stated)	inactive: -6.34%
CP(=O)(Nc1ccc(Cl)cc1Cl)Oc1ccccc1 (configuration not stated)	inactive: -2.55%
CCCCCCCCCCCCCCCC1C[N+](C)(C)CCOP(C)(=O)O1 (configuration not stated)	inactive: -5.93%
CP(=O)(OCCOc1ccccc1)OCCOc1ccccc1	inactive: 0.925%
CN(C)CCOC(=O)C(O)(c1ccccc1)C1CCCC1 (configuration not stated)	inactive: 2.53%
COc1ccc(OP(C)(=O)Nc2ccccn2)cc1 (configuration not stated)	inactive: 0.371%
COc1ccccc1OP(C)(=O)Nc1ccc(Br)cc1 (configuration not stated)	inactive: -1.03%

SMILES	activation
CCc1ccc(OP(C)(=O)O)cc1	inactive: -1.27%
CP(=O)(Nc1ccccn1)Oc1ccccc1 (configuration not stated)	inactive: -2.53%
COc1ccccc1OP(C)(=O)Nc1ccc(C)cc1C (configuration not stated)	inactive: 1.35%
Cc1c(NP(C)(=O)Oc2ccc(C(C)C)cc2)c(=O)n(-c2ccccc2)n1C (configuration not stated)	inactive: 1.43%
O=[N+]([O-])c1cc([N+](=O)[O-])c(Nc2ccccn2)c([N+](=O)[O-])c1	inactive: -1.58%
CCN(CC)CCCOC(=O)C(O)(c1ccccc1)c1ccccc1	inactive: 8.57%
COc1ccccc1-c1ccccn1.O=[N+]([O-])c1cc([N+](=O)[O-])c(O)c([N+](=O)[O-])c1	inactive: -3.06%
CC(C)(C)c1ccc(OP(C)(=O)Nc2ccc(SC(F)(F)F)cc2)cc1 (configuration not stated)	inactive: -7.25%
Cc1cccc(C)c1OP(C)(N)=O (configuration not stated)	inactive: 8.75%
O=[N+]([O-])c1ccc2c(c1)C=Nc1ccccc1O2	inactive: -0.037%
O=[N+]([O-])c1cc([N+](=O)[O-])c(Nc2cccnc2)c([N+](=O)[O-])c1	inactive: -11.4%
COc1ccccc1OP(C)(=O)Nc1cc(Cl)ccc1C (configuration not stated)	inactive: 3.46%
COc1ccc(OP(C)(=O)Nc2cccc(F)c2)cc1 (configuration not stated)	inactive: -3.71%
Cc1cc(C)cc(OP(C)(N)=O)c1 (configuration not stated)	inactive: -6.71%
CCOC(=O)c1ccc(NP(C)(=O)Oc2ccccc2)cc1 (configuration not stated)	inactive: -0.348%
COc1ccccc1OP(C)(=O)Nc1ccc(C)cc1 (configuration not stated)	inactive: 4.87%
Cc1ccc(NP(C)(=O)Oc2ccccc2)c(C)c1 (configuration not stated)	inactive: 5.84%
COc1ccccc1OP(C)(=O)Nc1ccccc1 (configuration not stated)	inactive: 14.6%
CP(=O)(Nc1ccccc1Br)Oc1ccccc1 (configuration not stated)	inactive: -2.23%
CP(=S)(Nn1cnnc1)Oc1ccccc1 (configuration not stated)	inactive: -0.491%
